Data as given in PubChem BioAssay AID1508602 (The Scripps Research Institute Molecular Screening Center, 2020).
Only a part is listed here, and it is no random draw. Active and inactive are the calls of the source. Rule as the data show it: active = activation above about 4.9%; inactive = the rest.

Protein sequences, listed by entry. Tags and fused reporters are not part of them. Lines headed by an entry give the natural chain unless they say otherwise; changes in a name come on top.
UniProt Q8TDV0: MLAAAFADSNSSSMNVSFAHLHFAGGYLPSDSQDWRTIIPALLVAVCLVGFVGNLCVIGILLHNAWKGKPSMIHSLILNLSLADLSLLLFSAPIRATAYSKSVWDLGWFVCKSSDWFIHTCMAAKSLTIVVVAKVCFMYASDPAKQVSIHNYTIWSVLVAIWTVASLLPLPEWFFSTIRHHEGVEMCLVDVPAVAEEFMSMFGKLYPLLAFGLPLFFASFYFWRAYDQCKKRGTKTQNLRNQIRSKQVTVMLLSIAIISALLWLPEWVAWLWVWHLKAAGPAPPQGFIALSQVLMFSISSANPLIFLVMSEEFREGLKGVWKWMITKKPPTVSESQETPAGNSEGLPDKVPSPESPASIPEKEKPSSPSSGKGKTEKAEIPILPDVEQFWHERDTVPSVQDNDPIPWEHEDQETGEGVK

Each molecule was assayed against G-protein coupled receptor 151 (Homo sapiens) (UniProt Q8TDV0) (assay: activates the human receptor GPR151, primary screen, cell-based, PathHunter beta-arrestin, luminescence (AID 1508602;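 also: 0% = median of compound wells and 100% = cells with positive control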)). Conditions: PathHunter beta-arrestin GPR151 cells, at 11.2 µM, active compounds read high.

| Structure (SMILES) | activation |
| --- | --- |
| CCOc1ccc(NC(=O)c2cc([N+](=O)[O-])cc([N+](=O)[O-])c2)c([N+](=O)[O-])c1 | inactive: 0.249% |
| ClC(Cl)(Cl)C1=NP2(=NC(c3ccccc3)=N1)OCCCO2 | inactive: 0.466% |
| CCN/N=C/c1c([N+](=O)[O-])cc([N+](=O)[O-])cc1[N+](=O)[O-] | inactive: 0.365% |
| Nc1c([N+](=O)[O-])cc(C(=O)c2cc([N+](=O)[O-])c(N)c([N+](=O)[O-])c2)cc1[N+](=O)[O-] | inactive: -0.0348% |
| CC(=O)N(Cc1ccco1)C1CCN(CCc2cccs2)CC1 | inactive: 2.22% |
| O=[N+]([O-])c1cc([N+](=O)[O-])c(CCN2CCOCC2)c([N+](=O)[O-])c1 | inactive: -2.18% |
| CN(C(=O)COC(=O)C(O)(c1ccccc1)c1ccccc1)c1ccccc1 | inactive: -0.909% |
| O=[N+]([O-])c1ccc(Oc2ccccc2[N+](=O)[O-])c([N+](=O)[O-])c1 | inactive: -1.1% |
| COc1ccc(NC2=NCC(CBr)S2)cc1 (stereo not given) | inactive: 0.722% |
| CCOP(=O)(OCC)C(=O)c1ccccc1Cl | inactive: 0.129% |
| O=C(Nc1ccccc1[N+](=O)[O-])c1ccc([N+](=O)[O-])cc1[N+](=O)[O-] | inactive: -0.596% |
| O=[N+]([O-])c1cc([N+](=O)[O-])c(OCC(O)C[n+]2ccccc2)c([N+](=O)[O-])c1 (stereo not given) | inactive: -0.234% |
| CCOP(=Nc1nc2ccccc2n2nnnc12)(OCC)OCC | inactive: 0.631% |
| Oc1ccccc1CNc1ccccn1 | inactive: 0.413% |
| COc1ccc2c(c1)nc(NCCCl)n2C | inactive: -0.411% |
| Nc1cc(N)c2nonc2c1[N+](=O)[O-] | inactive: 0.101% |
| O=C(Nc1ccc([N+](=O)[O-])cc1Cl)c1ccc([N+](=O)[O-])cc1[N+](=O)[O-] | inactive: 0.973% |
| CC(=O)OC=C1c2cc([N+](=O)[O-])cc([N+](=O)[O-])c2-c2c1cc([N+](=O)[O-])cc2[N+](=O)[O-] | inactive: -0.614% |
| N=C1N=C(c2ccc([N+](=O)[O-])cc2)CC(C(Cl)(Cl)Cl)S1 (stereo not given) | inactive: -0.406% |
| Cc1cc(SC(NC(=O)CC(C)C)C(Cl)(Cl)Cl)ncn1 (stereo not given) | inactive: -1.13% |
| Nc1c([N+](=O)[O-])cc([N+](=O)[O-])c(Nc2cccc(C(=O)O)c2)c1[N+](=O)[O-] | inactive: 0.145% |
| Cc1ccc(N/C(=N/P(=O)(N2CCOCC2)N2CCOCC2)N2CCOCC2)cc1 | inactive: -0.617% |
| NC(=O)c1cc([N+](=O)[O-])cc([N+](=O)[O-])c1N | inactive: 1.1% |

| Structure (SMILES) | activation |
| --- | --- |
| O=C(Nc1ccc(C(F)(F)F)cc1[N+](=O)[O-])c1cc([N+](=O)[O-])cc([N+](=O)[O-])c1 | inactive: -0.006% |
| CCOP(=O)(OCC)SCC(=O)NCCC(=O)O | inactive: -0.329% |
| COC(=O)c1ccc(OP2(=S)OCC(C)(C)CO2)cc1 | inactive: -0.82% |
| CCCCOP(=O)(OCCCC)SC | inactive: -0.213% |
| CCN(CC)C1=NP(=O)(c2ccccc2)NC(c2ccccc2)=C1C#N (stereo not given) | inactive: -0.582% |
| COc1ccc(CCN2CCC(N(Cc3ccco3)C(=O)NC(C)C)CC2)cc1 | inactive: -1.07% |
| CCOC(=O)N1C2CCC1CC(OC(=O)C(O)(c1ccccc1)c1ccccc1)C2 (stereo not given) | inactive: -0.297% |
| Cc1cc(C)nc(SC(NC(=O)C(C)C)C(Cl)(Cl)Cl)n1 (stereo not given) | inactive: -0.0006% |
| CCOc1ccc(/C=C2/C(=O)NC(=O)N(Cc3ccco3)C2=O)cc1 | inactive: -0.247% |
| CC(=O)N(Cc1cccnc1)C1CCN(CCc2ccccn2)CC1 | inactive: 2.84% |
| ICC1CN=C(Nc2ncccn2)S1 (stereo not given) | inactive: -0.167% |
| CCCOP(=O)(OCCC)O/C(C)=C/SC#N | inactive: -0.585% |
| CCOP(=O)(OCC)SCC(=O)NCC(=O)O | inactive: 1.01% |
| CCOP(=S)(OCC)C1(C#N)CCCC1 | inactive: 0.668% |
| O=[N+]([O-])c1ccc(N/N=C/c2cc3c(cc2[N+](=O)[O-])OCO3)c([N+](=O)[O-])c1 | inactive: 0.567% |
| OP1(c2ccccc2)=NC(c2ccccc2)=NC(C(Cl)(Cl)Cl)=N1 (stereo not given) | inactive: -0.229% |
| O=C(Oc1ccc([N+](=O)[O-])cc1[N+](=O)[O-])c1ccc(Cl)cc1[N+](=O)[O-] | inactive: -1.94% |
| O=C(c1cccnc1)N(Cc1ccco1)C1CCN(CCc2cccs2)CC1 | inactive: 3.87% |
| Cc1cccc(NP(=O)(c2ccccc2)c2ccccc2)n1 | inactive: -0.703% |
| COP(=O)(OC)C(NC(=O)c1ccc(C)cc1)=C(Cl)Cl | inactive: 0.899% |
| COc1ccc(CCN2CCC(N(Cc3cccnc3)C(C)=O)CC2)cc1 | inactive: 0.478% |
| CN(C)P1(=O)Nc2ccccc2S1 (stereo not given) | inactive: 2.45% |
